Results taken from paper PMC10135057, “Molecular Modification of Kex2 P1’ Site Enhances Expression and Druggability of Fungal Defensin” (Antibiotics, 2023).

What was measured:
S. aureus ATCC 25923 = type: cell-based, Staphylococcus aureus; conditions: CLSI procedure, triplicate
Description: (§1) The minimal inhibitory concentrations (MICs) assay was performed according to the CLSI procedures with the final peptide concentrations of 256, 128, 64, 32, 16, 8, 4, 2, 1, and 0.5 μg/mL, respectively. All tests were conducted in triplicate.

S. aureus CVCC 546 = type: cell-based, Staphylococcus aureus; conditions: CLSI procedure, triplicate
Description: as §1

[1] = tested on: Escherichia coli ATCC 25922; type: cell-based; conditions: CLSI procedure, triplicate
Description: as §1

[2] = tested on: Staphylococcus aureus ATCC 43300; type: cell-based; conditions: S. aureus ATCC 43300; CLSI procedure, triplicate
Description: as §1

[3] = tested on: Pseudomonas aeruginosa CICC 20625; experiment: Minimal inhibitory concentration (MIC); type: cell-based; conditions: CLSI procedure, triplicate
Description: as §1

[4] = tested on: Salmonella enterica ATCC 13076; experiment: Minimal inhibitory concentration (MIC); type: cell-based; conditions: CLSI procedure, triplicate
Description: as §1

[5] = tested on: mouse red blood cells (MRBCs); conditions: cited from earlier work
From the text: Table 4 Expression level and druggability of FNZ and NZ2114. | column: NZ2114

RAW264.7 cells = conditions: at 128 μg/mL; cited from earlier work
From the text: Table 4 Expression level and druggability of FNZ and NZ2114. | column: NZ2114 || Maximizing antibacterial activity of AMPs with minimal host toxicity is an attractive direction. A hemolysis test is mainly used to detect the rupture of red blood cells and determine whether drugs are harmful in vivo [54]. […] The π–π stacking b ...

CC[C@H](C)[C@@H]1NC(=O)[C@H](CO)NC(=O)[C@H](CCCCN)NC(=O)[C@@H]2CSSC[C@@H](C(=O)N[C@@H](Cc3ccc(O)cc3)C(=O)O)NC(=O)[C@H](CCCCN)NC(=O)[C@@H]3CSSC[C@H](NC(=O)[C@H](CCCNC(=N)N)NC(=O)[C@H](CC(C)C)NC(=O)[C@H](CC(=O)O)NC(=O)[C@H](CC(=O)O)NC(=O)[C@H](CCC(=O)O)NC(=O)[C@H](CC(N)=O)NC(=O)[C@H](Cc4c[nH]c5ccccc45)NC(=O)[C@@H]4CCCN4C(=O)CNC(=O)[C@H](CC(N)=O)NC(=O)[C@@H](NC(=O)CNC(=O)[C@H](Cc4ccccc4)NC(=O)CN)CSSC[C@H](NC(=O)[C@H](Cc4ccc(O)cc4)NC(=O)CNC(=O)CNC(=O)[C@H](CCCCN)NC(=O)[C@H](Cc4ccc(O)cc4)NC(=O)CNC(=O)[C@H](CCCCN)NC1=O)C(=O)N[C@@H](C)C(=O)N[C@@H](CCCCN)C(=O)NCC(=O)NCC(=O)N[C@@H](Cc1ccccc1)C(=O)N[C@@H](C(C)C)C(=O)N3)C(=O)N[C@@H](Cc1c[nH]cn1)C(=O)N[C@@H](CC(N)=O)C(=O)N[C@@H](Cc1c[nH]cn1)C(=O)N2 [NZ2114]
MIC (S. aureus ATCC 25923): 0.91 µM (≈ 4.01 µg/mL) | MIC (S. aureus CVCC 546): 1.81 µM (≈ 7.98 µg/mL) | MIC [1]: >28.97 µM | MIC [2]: 0.91 µM (≈ 4.01 µg/mL) | MIC [3]: >28.97 µM | MIC [4]: >28.97 µM | Hemolysis [5]: Less than 0.1% ^b | Cell viability (survival) (RAW264.7 cells): 52.13%

≈ marks a conversion by molar mass, not a printed value. Marks after values point to notes of the source that are not given here.
